Earlier results in patent publication US20070071689A1, “Advantageous combination for inhalation of nacystelyn and bronchodilators” (GALEPHAR M/F, priority 2003, published 2007).

Details: administration via the inhalation route

Substance: L-Lysine N-Acetylcysteinate [NAL]
- bronchospasms (side effects): without observing any side effects (bronchospasms)
